Patent US11028093B2, “4,6-substituted-pyrazolo[1,5-a]pyrazines as janus kinase inhibitors” (Array BioPharma Inc., priority 2014, dated 2021)

Amino acid sequences for entries named in this document (tags omitted). Residues count along the entry.
UniProt P23458, 866-1154: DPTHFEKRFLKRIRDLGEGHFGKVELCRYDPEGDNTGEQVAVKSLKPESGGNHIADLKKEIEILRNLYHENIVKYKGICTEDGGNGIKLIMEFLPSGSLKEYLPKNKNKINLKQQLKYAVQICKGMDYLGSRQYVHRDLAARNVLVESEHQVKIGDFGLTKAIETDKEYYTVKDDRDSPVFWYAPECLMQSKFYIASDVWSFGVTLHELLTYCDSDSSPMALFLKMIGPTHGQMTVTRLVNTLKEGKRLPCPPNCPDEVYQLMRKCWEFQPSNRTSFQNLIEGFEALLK

Target: JAK1 (Homo sapiens (Human), UniProt P23458)
Test: JAK1 Inhibition Assay (Omnia kinase fluorescence peptide substrate assay, 1 mM ATP)
Format: biochemical
Settings: read-out: JAK1 Enzyme IC50 1 mM ATP, averaged IC50 ranges
Excerpt: The assays described in Examples A, B, C and D for the determination of Tyk2, JAK1, JAK2 and JAK3 kinase activity, respectively, utilized the Omnia® Kinase fluorescence peptide substrate-based technology (Invitrogen). The specific components of the assay mixture are described in Examples A, B, C and D. In these assays, Mg^2+ is chelated upon phosphorylation of the Omnia peptide by the kinase to form a bridge between the chelation-enhanced fluorophore Sox and the phosphate, resulting in an increase in fluorescence emission at 485 nm when excited at […]. The reactions were therefore read at excitation 360 nm and emission was measured at 485 nm every 50 seconds for 45 minutes using a PerkinElmer EnVision Multilabel Plate Reader.
The final buffer conditions for Tyk2, JAK1, JAK2, and JAK3 assays were as follows: 25 mM HEPES, pH 7.4, 10 mM MgCl2, 0.01% Triton X-100 and 1 mM DTT.
Two-μL aliquots of these were transferred to a fresh plate for a ten-fold intermediate dilution with assay buffer. Five-μL aliquots of the diluted compounds were then transferred to 20-μL of assay mixtures described in Examples A, B, C and D for a final concentration of DMSO of 2%. […] For each plate, percent of control (POC) values were calculated for each well according to the following equation: […]

(R)-3-(4-(4-(1-((S)-2,2-dimethylcyclopentyl)-1H-pyrazol-4-yl)pyrazolo[1,5-a]pyrazin-6-yl)-1H-pyrazol-1-yl)propane-1,2-diol [Example 95]
IC50: 1 to 10 µM
